Laboratory results taken from patent US6436945B2, “Substituted O6-benzyl-8-aza-guanines” (The United States of America as represented by the of …, priority 1994, dated 2002).

Legend:
[1] = target: T1, O^6-alkylguanine-DNA alkyltransferase (AGT) (Homo sapiens, UniProt P16455); parameters: endogenous in cells; host or cells: HT29 human colon tumor cells; details: read-out: ED50 In HT29 cell-free extract; incubation for 30 min; Table 1; from Moschel et al. 1992; cited from earlier work
T1 sequence (P16455 1-207): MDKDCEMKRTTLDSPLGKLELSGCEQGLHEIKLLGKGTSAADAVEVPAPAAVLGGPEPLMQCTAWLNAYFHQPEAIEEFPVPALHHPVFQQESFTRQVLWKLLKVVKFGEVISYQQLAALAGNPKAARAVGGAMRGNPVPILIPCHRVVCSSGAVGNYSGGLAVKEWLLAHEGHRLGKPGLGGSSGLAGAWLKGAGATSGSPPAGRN

[2] = target: T1, O^6-alkylguanine-DNA alkyltransferase (AGT); parameters: endogenous in cells; host or cells: HT29 human colon tumor cells; details: incubation for 4 hr; Table 1; from Moschel et al. 1992; read-out: ED50 In HT29 cells; cited from earlier work
Control alkyltransferase = target: T2, Control alkyltransferase (Homo sapiens, UniProt P16455); experiment: Inhibition of alkyltransferase proteins, control protein; type: biochemical
T2 sequence (P16455 1-207): T1 sequence (P16455 1-207)

[3] = target: T3, alkyltransferase P138A/P140A (Homo sapiens, UniProt P16455, P138A/P140A); experiment: Inhibition of mutant alkyltransferase proteins, P138A/P140A; type: biochemical; details: concentration to inactivate 50% of the activity in 30 minutes, read-out: ED50 value
T3 construct: made in house
T3 sequence (P16455 1-207 P138A/P140A): T1 sequence (P16455 1-207) with P138A, P140A

alkyltransferase P140A = target: T4, alkyltransferase P140A (Homo sapiens, UniProt P16455, P140A); experiment: Inhibition of mutant alkyltransferase proteins, P140A; type: biochemical; details: concentration to inactivate 50% of the activity in 30 minutes, read-out: ED50 value
T4 construct: made in house
T4 sequence (P16455 1-207 P140A): T1 sequence (P16455 1-207) with P140A

alkyltransferase G156A = target: T5, alkyltransferase G156A (Homo sapiens, UniProt P16455, G156A); experiment: Inhibition of mutant alkyltransferase proteins, G156A; type: biochemical; details: concentration to inactivate 50% of the activity in 30 minutes, read-out: ED50 value
T5 construct: made in house
T5 sequence (P16455 1-207 G156A): T1 sequence (P16455 1-207) with G156A

Nc1nc(OCc2ccccc2)c2[nH]cnc2n1 [O^6-benzylguanine, reference compound]
EC50 [1]: 200 nM
EC50 [2]: 50 nM
EC50 (Control alkyltransferase): 250 nM
EC50 [3]: 22 µM
EC50 (alkyltransferase P140A): 5 µM
EC50 (alkyltransferase G156A): 60 µM

Positions count from the first letter of the chain named. Where two headings read alike, the source gives them in different places.
